{"sequences": {"note": "Sequences of proteins named here, by UniProt entry; tags and fusion partners are left off.", "UniProt P53041, whole entry": "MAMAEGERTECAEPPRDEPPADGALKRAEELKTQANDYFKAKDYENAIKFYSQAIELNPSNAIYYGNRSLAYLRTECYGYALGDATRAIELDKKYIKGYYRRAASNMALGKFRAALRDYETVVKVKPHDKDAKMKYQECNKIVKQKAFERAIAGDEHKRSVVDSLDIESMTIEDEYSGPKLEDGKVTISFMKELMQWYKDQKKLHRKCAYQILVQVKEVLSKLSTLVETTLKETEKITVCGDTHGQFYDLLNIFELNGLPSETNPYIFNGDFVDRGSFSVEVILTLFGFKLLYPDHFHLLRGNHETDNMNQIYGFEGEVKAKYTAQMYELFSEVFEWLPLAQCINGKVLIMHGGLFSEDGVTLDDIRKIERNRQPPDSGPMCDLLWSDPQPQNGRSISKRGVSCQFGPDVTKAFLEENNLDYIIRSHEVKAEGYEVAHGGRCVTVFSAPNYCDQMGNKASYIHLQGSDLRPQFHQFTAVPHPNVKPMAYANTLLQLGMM"}, "source": "PubChem BioAssay AID2331", "about": "(The Scripps Research Institute Molecular Screening Center, 2010)", "molecular_target": "Serine/threonine-protein phosphatase 5 (Homo sapiens) (UniProt P53041)", "assay": "inhibition of human PPP5C phosphatase activity – biochemical, fluorescence, confirmation (AID 2331)", "conditions": "Purified PP5, fluorogenic phosphatase substrate, at 6.7 µM, hits give high values", "note": "The entries are a selection whose mix differs from that of the whole data set. The source made the active and inactive calls. No stated cut-off is given here; in the data, active means inhibition above about 9.5%; inactive means the rest."}
{"smiles": "Cc1cc(C)cc(OP(C)(N)=O)c1", "note": "(stereo unspecified)", "values": [{"measurement": "inhibition", "value": "inactive: -2.07%"}]}
